Results as given in patent publication US12492204B2, “Substituted (7H-pyrrolo[2,3-D]pyrimidin-4-yl) amino compounds useful as JAK 1 inhibitors” (CHEMWERTH, INC., priority 2019, dated 2025).

Chains of the proteins cited; added tags and fusions are not shown. Lines headed by an entry give the natural chain unless they say otherwise; changes in a name come on top.
UniProt P29597: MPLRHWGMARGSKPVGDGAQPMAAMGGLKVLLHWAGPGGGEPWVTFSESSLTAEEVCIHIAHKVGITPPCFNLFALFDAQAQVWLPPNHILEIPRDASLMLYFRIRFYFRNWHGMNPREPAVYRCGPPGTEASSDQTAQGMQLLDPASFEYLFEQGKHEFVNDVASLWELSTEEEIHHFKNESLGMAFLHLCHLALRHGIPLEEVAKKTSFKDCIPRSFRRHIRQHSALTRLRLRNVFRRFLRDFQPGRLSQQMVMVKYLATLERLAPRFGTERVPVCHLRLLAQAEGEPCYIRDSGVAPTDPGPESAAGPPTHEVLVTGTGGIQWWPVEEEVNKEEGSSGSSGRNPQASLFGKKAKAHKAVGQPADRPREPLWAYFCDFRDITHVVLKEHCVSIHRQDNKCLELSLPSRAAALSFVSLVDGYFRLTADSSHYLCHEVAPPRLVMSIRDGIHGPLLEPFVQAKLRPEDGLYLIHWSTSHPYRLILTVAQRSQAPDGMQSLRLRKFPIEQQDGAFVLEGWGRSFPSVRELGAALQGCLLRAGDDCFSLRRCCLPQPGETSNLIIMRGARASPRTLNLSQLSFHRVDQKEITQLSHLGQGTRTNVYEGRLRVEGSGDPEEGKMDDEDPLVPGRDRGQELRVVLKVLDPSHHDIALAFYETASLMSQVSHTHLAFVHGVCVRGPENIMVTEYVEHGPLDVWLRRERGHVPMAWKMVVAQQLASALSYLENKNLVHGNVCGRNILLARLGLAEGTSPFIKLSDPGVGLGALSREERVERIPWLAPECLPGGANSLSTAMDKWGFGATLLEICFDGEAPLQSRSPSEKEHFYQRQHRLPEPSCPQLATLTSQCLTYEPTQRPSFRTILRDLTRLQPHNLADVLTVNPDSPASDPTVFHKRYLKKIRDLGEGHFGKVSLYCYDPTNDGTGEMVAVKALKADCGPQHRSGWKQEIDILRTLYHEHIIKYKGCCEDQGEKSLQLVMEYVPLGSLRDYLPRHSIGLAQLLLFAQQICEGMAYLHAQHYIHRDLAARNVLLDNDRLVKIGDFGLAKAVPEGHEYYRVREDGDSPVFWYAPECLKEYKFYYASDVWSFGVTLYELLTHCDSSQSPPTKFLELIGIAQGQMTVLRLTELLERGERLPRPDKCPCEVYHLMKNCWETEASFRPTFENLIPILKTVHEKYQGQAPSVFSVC

Molecular target: TYK2 (Homo sapiens (Human), UniProt P29597)
Test: TYK2 enzymatic assay
Format: biochemical
Conditions: ATP 16 μM, Peptide30

## O=C(Nc1nc2cccc(-c3ccc(CN4CCS(=O)(=O)CC4)cc3)n2n1)C1CC1 [Filgotinib, reference compound]
  IC50: 216 nM
